According to patent US6664231B1, “Anti-fungal peptides” (priority 1993, dated 2003):
One block for each molecule: values may come before it.

Assays:
[1] = test system: C. albicans (CA-1, Strain SLU-1); experiment: Radial diffusion assay; assay type: cell-based, Candida albicans; details: pmoles of peptide added to well to achieve a 30 mm^2 zone, PROBIT analysis, crude or purified (P′) peptide
Description: In the radial diffusion assay procedures, the CA-1 cultures and peptide solutions were prepared as in the broth assay procedure described above. Ten mL of molten underlayer agarose comprising 3% Sabouraud Dextrose broth, 1% agarose (Pharmacia, Piscataway, N.J.), 0.02% Tween 20, and 10 mM sodium phosphate at pH 7.4, was added to polystyrene tubes and maintained in a 56° C. water bath until the addition of yeast. Tubes were cooled to approximately 45° C., yeast were added to give a final concentration of 1×10^6 CFU/mL, and the tubes were mixed again by inverting. The contents were poured into level square petri dishes and distributed evenly. […] A series of wells were punched into the hardened agarose using a sterile 3 mm punch attached to a vacuum apparatus.
Peptides to be assayed were 2-fold serially diluted in Dulbecco's PBS (D-PBS) starting from a concentration of approximately 1 mg/mL. Five μL of each dilution were added to each well and the plates were incubated at 37° C. for 3 hours. An overlayer of 10 mL of molten agarose comprising 6% Sabouraud Dextrose broth, 1% agarose, and 10 mM sodium phosphate, pH 7.4, (at approximately 45° C.) was then added and plates were incubated overnight at 37° C. Following this overnight incubation, a dilute Coomassie solution was poured into the plates and allowed to stain for 24 hours.
Clear zones of growth inhibition around each well were measured with calipers. The actual area of growth inhibition (mm^2) was calculated by subtracting the area of the well. Table 1 below sets out the results of the radial diffusion assays for tested peptides in terms of the number of picomoles (pmol) of peptide required to establish a 30 mm^2 area of growth inhibition calculated by PROBIT analysis (e.g., calculated from regression of the linear portion of log-concentration dose-response curve, log pmol/well vs. net area of inhibition).

[2] = test system: mouse RAW 264.7 cells incubated with E. coli O113 LPS
Description: (§1) An in vitro LPS neutralization screening assay for evaluation of Domain III derived peptides was developed (as described in co-owned and co-pending U.S. patent application Ser. No. 08/306,473) which provides both a measure of efficacy of each peptide (EC50) and of the toxicity/growth inhibition of each peptide (IC50).
(§2) The cells were counted and their concentration adjusted to 2×10^5 cells/mL and 100 μL aliquots were added to each well of a 96-well microtitre plate. […] This incubation was performed in the absence or presence of peptides in varying concentrations between 25 ng/mL and 50 μg/mL. […] Cell proliferation was quantitatively measured by the addition of 1 μCi/well [^3H]-thymidine 5 hours after the time of initiation of the assay. After the 15-hour incubation, labeled cells were harvested onto glass fiber filters with a cell harvester (Inotech Biosystems, INB-384, Sample Processing and Filter Counting System, Lansing, Mich.).

mouse RAW 264.7 cells = test system: mouse RAW 264.7 cells
Description: as §1, §2

[3] = Serum stability, anti-fungal activity after serum incubation by radial diffusion bioassay; assay type: in vitro ADME, rat or human serum; details: Activity in Serum t ½ (hr.)
Description: For these serum stability experiments, peptides were prepared by solid phase peptide sythesis and purified to 94% or greater purity as described in Example 1. Blood was collected from metaphane anesthesized rats by aortic bleed into Vacutainer™ tubes and allowed to clot at room temperature for approximately 30 minutes, then centrifuged at 3000 rpm (about 1000×g) for 10 minutes at room temperature and the serum aspirated. In addition, frozen human serum (North American Biologics, Inc., Miami, Fla., cat. no. 2140, lot no. 94115) was thawed at room temperature and filtered through a 0.45 μm membrane before use.
A 1 mg/mL solution of an exemplary XMP peptide to be tested was added to an equal volume of either rat or human serum described above and maintained at 37° C. At 0, 1, 2, and 4 hours, 100 μL were removed and processed by solid phase extraction for HPLC analysis as follows. Serum samples were prepared for HPLC using C-18 Sep-Pak cartridges (1 mL cartridge with 100 mg of sorbent, Waters Corp., Milford, Mass.). One hundred μL of serum sample were added to an equal volume of 1% TFA and mixed for 30 seconds on a Vortex mixer. The sample was then applied to a C-18 Sep-Pak cartridge that had been conditioned by washing with 1 mL of methanol followed by 1 mL Milli-Q water. Weakly reed components were eluted by washing with 1 mL of 0. 1% TFA. The bound peptide was eluted with two volumes of 250 μL 80% acetonitrile/0.065% TFA.
The peptides identified and purified after serum incubation as described above were subjected to N-terminal peptide sequencing performed on an Applied Biosystems Model 477A/120A sequencer and to electrospray ionization mass spectrometry (ESI/MS) performed using a VG Biotech Bio-Q Mass Spectrometer. In addition, the peptides identified and purified after serum incubation as described above were also tested for their anti-fungal activity in a radial diffusion bioassay with Candida albicans SLU-1 strain as described in Example 2.

[4] = test system: Crytococcus Neoformans 13690; assay type: cell-based, Cryptococcus neoformans
Description: In additional experiments, a fluorescence-activated cell sorter (FACS) based assay was developed to test the fungicidal activity of the peptides. […] Difco) agar. Several colonies were picked from the agar plate and inoculated into 5 mL of Sabouraud's Dextrose media in a sterile 10 mL polypropylene tube. The fungal cultures were incubated for about 18 hours at 30° C. […] The culture were centrifuged at 3000 rpm for 5 minutes (Sorvall RT 6000B). After centrifugation, the supernatant was decanted leaving the fungal pellets in the centrifuge tubes. The pellets were resuspended in 15 mL of SDB. Both suspensions were combined into one tube and mixed to generate a stock culture. […] After determining the concentration of the stock, appropriate dilutions were made with Sabouraud's Dextrose media to obtain 100 mL of 1×10^6 cell/mL. […] After the 1 hour incubation, all the tubes were centrifuged at 3000 rpm for 5 minutes. […] Louis, Mo.) in Dulbecco's PBS (DPBS, GIBCO, Grand Island, N.Y.) except the autofluorescence control, which was resuspended in DPBS alone. The tubes were mixed and incubated in the dark at room temperature for at least 20 minutes. […] The settings were adjusted appropriately to the following approximate parameters: Cells were analyzed (10,000 cells/tube) and their respective fluorescence determined. […] The population of dead (i.e., propidium iodide stained) fungal cells was determined by a fluorescence threshold between the negative control and positive control.

[5] = test system: Candida albicans (SLU-1 and ATCC strains); assay type: cell-based
Description: (§3) The anti-fungal activity of Domain III derived peptides was evaluated against a variety of fungal species, including species of Candida. Cryptococcus, Fusarium, Trichophyton, and Aspergillus, by an additional assay protocol utilizing Alamar Blue. Alamar Blue is an indicator dye formulated to measure quantitatively the proliferation of a variety of human or animal cells, bacteria, or fungi. It consists of an oxidation-reduction (REDOX) indicator that yields a colorimetric change in response to metabolic activity. For these experiments, species of Candida and Cryptococcus were grown in Sabouraud's dextrose broth (SDB) overnight. Strains of filamentous fungi (Aspergilius, Fusanum, Trichophyton) were obtained by irrigation of a confluent culture from a petri dish. Cells were washed and adjusted to a concentration of 5.0×10^3/mL in fresh SDB. […] Controls included amphotericin B, fluconazole, ketoconazole and griseofulvin. Antifungal drugs were also diluted in the same manner. Assays were performed in 96-well microuiter plates. […] The wells to be plated were determined by OD590 readings. The lowest concentration of peptide which maintained the blue color (or OD reading) of the blank was chosen along with the next two higher concentrations. Plates were allowed to grow for 18-48 hours depending on the rate of growth of each fungus. Minimal fungicidal activity (MFC) was determined as a 99.9% killing of the starting inoculum.

[6] = test system: Cryptococcus neoformans ATCC 13690; assay type: cell-based
Description: as §3

Aspergillus ATCC 13073 = assay type: cell-based
Description: as §3

Structure (SMILES): CC[C@H](C)[C@H](NC(=O)[C@H](CCCCN)NC(=O)[C@H](CCCCN)NC(=O)[C@H](Cc1c[nH]cn1)NC(=O)[C@H](Cc1ccccc1)NC(=O)[C@H](CC(C)C)NC(=O)[C@H](CCC(N)=O)NC(=O)[C@@H](NC(=O)[C@H](CC(C)C)NC(=O)[C@H](Cc1c[nH]c2ccccc12)NC(=O)CNC(=O)[C@@H](NC(=O)[C@H](CCCCN)NC(=O)[C@H](CO)NC(=O)[C@H](CCCCN)NC(=O)[C@H](CO)NC(=O)[C@@H](NC(=O)[C@H](Cc1c[nH]cn1)NC(=O)[C@@H](NC(=O)[C@H](Cc1c[nH]cn1)NC(=O)[C@@H](N)C(C)C)C(C)C)[C@@H](C)CC)C(C)C)[C@@H](C)CC)C(=O)N[C@@H](CCC(=O)O)C(N)=O [XMP.5]
- C. albicans pmol/30 mm^2 zone [1]: >2151 pmol/30 mm^2 zone
- EC50 (peptide concentration at which the growth inhibitory effect of LPS was reversed by 50%) ([2]; LPS 1 ng/mL): 5.3 ± 0.6 µg/mL
- IC50 (peptide concentration at which RAW cell growth was inhibited by 50%) (mouse RAW 264.7 cells; concentrations tested 25 ng/mL to 50 μg/mL): not observed at the concentrations tested

- half-life at 0.5 mg/mL [3]: 15.3 h
Structure (SMILES): CC[C@H](C)[C@H](NC(=O)[C@H](C)NC(=O)[C@@H](NC(=O)CNC(=O)[C@@H](NC(=O)[C@H](CCCCN)NC(=O)[C@H](CO)NC(=O)[C@@H](N)CCCCN)C(C)C)C(C)C)C(=O)N[C@@H](CCC(N)=O)C(=O)N[C@@H](CC(C)C)C(=O)N[C@@H](Cc1ccccc1)C(=O)N[C@@H](Cc1c[nH]cn1)C(=O)N[C@@H](CCCCN)C(=O)N[C@@H](CCCCN)C(N)=O [XMP.268]
- C. albicans pmol/30 mm^2 zone [1]: 308 pmol/30 mm^2 zone
- C. albicans pmol/30 mm^2 zone ([1]; listed as XMP.268P′): 63 pmol/30 mm^2 zone

Structure (SMILES): CC[C@H](C)[C@H](NC(=O)[C@H](CC(C)C)NC(=O)[C@@H](N)Cc1c[nH]c2ccccc12)C(=O)N[C@@H](CCC(N)=O)C(N)=O [XMP.330]
- C. albicans pmol/30 mm^2 zone [1]: b (No detectable activity up to 5 μg/well)
- In Vitro LPS Neutralization EC50 ([2]; RAW 264.7 cells with E. coli O113 LPS, concentration reversing LPS growth inhibition by 50%): >50 µg/mL
- IC50 (toxicity/growth inhibition of peptide) (mouse RAW 264.7 cells; RAW 264.7 cell growth inhibited by 50%): NA (NA for IC50 means no evidence of decreased RAW cell growth at up to 50 μg/ml)

Structure (SMILES): CC[C@H](C)[C@H](NC(=O)[C@H](CC(C)C)NC(=O)[C@H](Cc1c[nH]c2ccccc12)NC(=O)[C@@H]1CCCN1)C(=O)N[C@@H](CCC(N)=O)C(=O)N[C@@H](CC(C)C)C(=O)N[C@@H](Cc1ccccc1)C(=O)N[C@@H](Cc1c[nH]cn1)C(=O)N[C@@H](CCCCN)C(=O)N[C@@H](CCCCN)C(=O)O [XMP.353]
- Activity of Peptides on Crytococcus Neoformans 13690, IC50 [4]: 0.37 µg/mL
- C. albicans pmol/30 mm^2 zone [1]: 3,093 pmol/30 mm^2 zone
- C. albicans pmol/30 mm^2 zone ([1]; listed as XMP.353P′): 463 pmol/30 mm^2 zone
- Minimum Fungicidal Concentration, Candida albicans SLU-1 [5]: 2.5 µg/mL
- Minimum Fungicidal Concentration, Cryptococcus neoformans ATCC 13690 [6]: 0.63 µg/mL
- Minimum Fungicidal Concentration, Aspergillus ATCC 13073 (Aspergillus ATCC 13073): 12.50 µg/mL
- half-life at 0.5 mg/mL [3]: 0.9 h
